Literature values in US20250236608A1, “EGFR INHIBITORS” (Blueprint Medicines Corporation, priority 2022, published 2025).

Tested on: EGFR mutant NSCLC
Settings: EGFR M+ NSCLC patients treated first line (1 L); cited from earlier work

For `COc1cc2ncnc(Nc3ccc(F)c(Cl)c3)c2cc1OCCCN1CCOCC1` [gefitinib], the “objective response rate (ORR)” value is listed as 60-85%.
